Measured values from patent publication US12558324B2, “Application of R-ketamine and salt thereof as pharmaceuticals” (National University Corporation Chiba University, priority 2013, dated 2026).

Experiments:
[1] = system: social defeat stress mice; assay: Golgi staining, spine density in brain regions of social defeat stress mice; conditions: 10 mg/kg i.p.; for spine density of the hippocampus CA1 region / spine density of the hippocampus CA3 region (decrease by social defeat stress) / spine density of the nucleus accumbens (increase by social defeat stress) / spine density of the striatum / spine density of the frontal cortex (mPFC) / spine density of the hippocampal dentate gyrus: Golgi staining 8 days after injection; for spine density of the frontal cortex (mPFC) / spine density of the hippocampal dentate gyrus: vs saline
NMDA receptor = conditions: greater than R-isomer; Non Patent Literature 12; cited from earlier work

SMILES	restoration of spine density in the hippocampal dentate gyrus compared to S(+)-ketamine ([1]; 8 days after injection)	spine density of the hippocampus CA1 region [1]	spine density of the hippocampus CA3 region (decrease by social defeat stress) [1]	spine density of the nucleus accumbens (increase by social defeat stress) [1]	spine density of the striatum [1]	spine density of the frontal cortex (mPFC) [1]	spine density of the hippocampal dentate gyrus [1]	affinity for the NMDA receptor relative to R-isomer (NMDA receptor)
CN[C@@]1(c2ccccc2Cl)CCCCC1=O.Cl [R(−)-ketamine, R(−)-ketamine hydrochloride]	more significant improvement in the restoration of spine density	no apparent change in spine density was observed	significantly improved	significantly improved	no apparent change in spine density was observed	significantly improved the decreased density of spine	significantly improved the decreased density of spine	–
CN[C@]1(c2ccccc2Cl)CCCCC1=O.Cl [S(+)-ketamine, S(+)-ketamine hydrochloride]	–	no apparent change in spine density was observed	significantly improved	significantly improved	no apparent change in spine density was observed	significantly improved the decreased density of spine	significantly improved the decreased density of spine	approximately 4 fold
